Values quoted from earlier work in article PMC7496931, “Activation of Sirtuin 2 Inhibitors Employing Photoswitchable Geometry and Aqueous Solubility” (Chemmedchem, 2020).

Test system: Sirt2
Design: method as in PMID 26982234
Details: read-out: Sirt2 inhibition, IC50 (originally published value); cited from earlier work

NC(=O)c1cncc(OCc2cccc(NC(=O)c3ccc(OCc4ccccc4)cc3)c2)c1 [2 (R=OBn)]
pIC50: 7.00

pIC50: −log10 of the molar value.
